The list shows a part of the results, in another mix than the full data. The source made the active and inactive calls. The call rests on the fitted dose curve; in most records, active means well fitted activation curve with a large enough effect; inconclusive means small, poorly fitted or top-dose-only effect; inactive means flat fitted curve, though single readings scatter.

This experiment is described as follows: qHTS of Nrf2 Activators. Further: % of control where 0% means no effect; nearly all actives have a fitted effect of over 65% in size. The conditions noted are these: AREc32 ARE-luciferase reporter (MCF7-derived line), luminescence, 24 h; at 46.1 µM (top of the series) unless noted. A digest of the protocol: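 Quantitative high-throughput format: AREc32 reporter cells, 1000 per well, received compound by pin transfer and were incubated 24 hr at 37 deg C, 5% CO2, before Steady-Glo luminescence detection.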
Consider `N#Cc1ccc(C(=O)NCC2(N3CCCCC3)CCCCC2)cc1`, for which the activation was inactive: 0.394%.

In the case of `O=C(NCC1(N2CCOCC2)CCCCC1)c1ccccc1[N+](=O)[O-]`, the activation was inactive: -0.211%. On to `CC(C)(C)n1nnnc1C(c1cccc2ccccc12)N1CCC(n2c(=O)[nH]c3ccccc32)CC1` (stereo not given), for which the activation was inactive: -1.73%. Under `c1ccc(CN2CCC(Nc3ccccc3)CC2)cc1` stands inactive: 2.79%; under `Cc1cc(N(CCCl)CCCl)ccc1C=O`, inactive: 4.06%. Regarding `O=C(NCC1(N2CCOCC2)CCCCC1)c1ccccc1`, the activation is inactive: -0.91%.

With `O=c1[nH]c2ccccc2n1C1CCN(C(c2ccccc2)c2nnnn2C2CCCC2)CC1` (stereo not given), the activation is inactive: 3.94%.

Take `CCCN1CCC(Nc2cc(OC)cc(OC)c2)CC1`: the activation is inactive: 3.07%.

`CN(C)C1(CNC(=O)c2cccc(C#N)c2)CCCCC1`: the activation is inactive: -0.699%.

In the case of `Cc1ccc(NC2(C#N)CCN(Cc3ccccc3)CC2)cc1`, the activation was inactive: -0.713%. Under `Cc1ccc(C(=O)NCC2(N3CCCCC3)CCCCC2)o1` stands inactive: -0.662%; under `Fc1ccccc1NC1CCN(Cc2ccccc2)CC1`, inactive: 0.301%.

As to `COc1cc(OC)cc(C(=O)NCC2(N3CCCCC3)CCCCC2)c1`, the activation is inactive: 0.921%. The figure for `O=c1[nH]c2ccccc2n1C1CCN(C(c2ccnc3ccccc23)c2nnnn2C2CCCCC2)CC1` (stereo not given) is inactive: -0.778%; for `COc1cccc(C(c2nnnn2C2CCCCC2)N2CCC(n3c(=O)[nH]c4ccccc43)CC2)c1OC` (stereo not given) it is inactive: -0.299%.

Turning to `CN(C)C1(CNC(=O)c2ccc(C(C)(C)C)cc2)CCCCC1`, the activation is inactive: 3.54%. The figure for `CC(=O)N(c1ccccc1)C1CCNCC1` is inactive: 0.0468%; for `CCC(c1nnnn1C1CCCCC1)N1CCC(n2c(=O)[nH]c3ccccc32)CC1` (stereo not given) it is inactive: 0.43%.

With `O=C(NCC1(N2CCCCC2)CCCCC1)c1ccco1`, the activation was inactive: -1.22%.

With `CC(C)(C)c1ccc(C(=O)NCC2(N3CCOCC3)CCCCC2)cc1`, the activation is inactive: 3.48%. The figure for `CN(C)c1ccc(C(=O)NCC2(N3CCCCC3)CCCCC2)cc1` is inactive: -0.465%; for `Cn1c(=O)[nH]cc(N(CCCl)CCCl)c1=O` it is inactive: 0.272%; for `Cc1ccccc1C(=O)NCC1(N(C)C)CCCCC1` it is inactive: -0.884%. The figure for `Cc1ccccc1NC1(C#N)CCN(Cc2ccccc2)CC1` is inactive: -0.737%; for `CCN1CCC(Nc2cccc(F)c2)CC1` it is inactive: -0.0738%; for `COc1ccc(C(c2nnnn2C2CCCCC2)N2CCC(n3c(=O)[nH]c4ccccc43)CC2)cc1` (stereo not given) it is inactive: -0.657%. With `CC(C)(C)n1nnnc1C(c1ccnc2ccccc12)N1CCC(n2c(=O)[nH]c3ccccc32)CC1` (stereo not given), the activation was inactive: 3.04%. Under `O=c1[nH]c2ccccc2n1C1CCN(C(c2cc3ccccc3o2)c2nnnn2C2CCCC2)CC1` (stereo not given) stands inactive: 0.829%. Under `CCCOc1ccc(C(=O)NCC2(N(C)C)CCCCC2)cc1` stands inactive: 0.261%. As for `CC(C)(C)OC(=O)N1CCC(Nc2ccccc2)CC1`, the activation was inactive: -0.0434%. The figure for `O=C(O)C1(Nc2ccccc2)CCN(Cc2ccccc2)CC1` is inactive: -0.206%. Turning to `NN(c1ccccc1)C1CCN(CCc2ccccc2)CC1`, the activation was inactive: 1.2%. Under `CCOc1ncccc1C(=O)NCC1(N2CCOCC2)CCCCC1` stands inactive: -0.625%; under `CN1CCC(Nc2ccc(F)c(Cl)c2)CC1`, inactive: -0.236%; under `CN1CCC(Nc2ccc(Cl)cc2)CC1`, inactive: -0.0717%.

As to `CCC(CO)(C(=O)OC1CN2CCC1CC2)c1ccccc1` (stereo not given), the activation is inactive: -0.59%. Regarding `COc1cccc(C(c2nnnn2C2CCCC2)N2CCC(n3c(=O)[nH]c4ccccc43)CC2)c1OC` (stereo not given), the activation is inactive: 6.06%. The figure for `COc1cc(OC)cc(C(=O)NCC2(N3CCOCC3)CCCCC2)c1` is inactive: -0.23%; for `COc1cc(C(=O)NCC2(N3CCOCC3)CCCCC2)cc(OC)c1OC` it is inactive: -0.139%. With `COc1cccc(C(=O)N(c2cc(C)cc(C)c2)C2CCN(C(=O)OC(C)(C)C)CC2)c1`, the activation is inactive: -0.483%.

These data come from PubChem BioAssay AID624171 (National Center for Advancing Translational Sciences (NCATS), 2012).
